## Measured affinities in a library of Ab-14 heavy chain variants

The target is the same throughout: PDVDLGDISGINAS, from the HR2 region of SARS-CoV-2 spike.

Parent scFv Ab-14: VH joined to VL by a 15-residue (Gly4Ser)3 linker. Changes lie in the heavy chain CDRs alone.
VH: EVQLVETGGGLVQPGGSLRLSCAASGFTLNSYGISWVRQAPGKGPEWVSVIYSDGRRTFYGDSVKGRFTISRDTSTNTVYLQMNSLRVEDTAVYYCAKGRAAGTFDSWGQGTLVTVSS
VL: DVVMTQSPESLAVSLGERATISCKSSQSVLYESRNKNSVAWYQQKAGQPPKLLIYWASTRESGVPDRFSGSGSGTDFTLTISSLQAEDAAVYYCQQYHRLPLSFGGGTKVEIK

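The starting antibody came from a phage panning campaign against this peptide. These sequences belong to a second round, designed from the earlier measurements on random variants of the parent. Several design methods are mixed in this list. AlphaSeq pools MATa yeast showing the antibodies with MATalpha yeast showing the peptide. The frequency of each diploid, read from paired DNA barcodes, reflects how well the two displayed proteins bind. Read counts were normalised to the haploid input and turned into Kd by a linear fit to BCL2-family pairs of known affinity, for each replicate. Mating was done six times.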

The parent's heavy chain CDRs are GFTLNSYGIS, VIYSDGRRTFYGDSVK, GRAAGTFDS; each variant's own CDRs replace them letter for letter.
The Kd shown is the geometric mean over detected replicates; a lower Kd is a better binder.
A pair that was not seen in any replicate is written "not detected"; this usually means weak binding, but a binder can also be missed.
Empty control strains, which show no peptide, gave a signal in 1% of pairings with all heavy chain designs; the median was 120 nM and 95% of these signals were weaker than 7.0 nM. No background was subtracted.

CDR-H1	CDR-H2	CDR-H3	apparent Kd	replicates with signal
GFTLNSYGIS	VIYADGWRVFYGDSVK	GRAAGTFLS	120 nM	1 of 6
GHTLNSYGIS	VIYADGRRTFYGDSVK	GYAAGNFDS	not detected	0 of 6
GFTLNDYGIS	VIYSDGRRTQYIDSVK	GRSAGTFDS	8.3 nM	6 of 6
GFTLNMYGIS	VIYSDGRRTFYSDSVK	GRAGGRFDS	9.3 nM	6 of 6
GFNLNSYGIS	VIYSDGRRTFYHDSVK	GQVAGTFDS	1.8 nM	6 of 6
GFDLEEYGIS	VIYADGKRTFYSDSVK	GEAAGTFDS	1.1 nM	6 of 6
GFTLNSYGIS	VIYSDGRRTFYADSVK	GRSAGTFDS	12 nM	6 of 6
GFTLNDYGIS	VIYSDGRRTFYGDSVK	GRAAGTFEK	1.1 µM	3 of 6
GFTLNSYGKS	VIYSDGRRTFYSDSVK	GRAGGTFDS	not detected	0 of 6
GFTLNQYGIS	VIYSDGRRTDKSDSVK	GQDAGFFDS	not detected	0 of 6
GFTLNSQGIS	VIYSDGRRTFYTDSVK	GRAAGTFDS	4.3 nM	2 of 6
GFGIDEYGIS	VIYADGQRKMYQDNVK	GNVGSLFSV	not detected	0 of 6
GFDLDEYGIS	VIYADGMRTAYADSVK	GGVAGTFDV	680 pM	6 of 6
GFTRNSYGIS	VIYSDGRRTFYGDSVK	WRARGTFDA	not detected	0 of 6
GFSLNEYGIS	VIYSDGRRTFYGDSVK	GRQAGTFSS	2.9 nM	6 of 6
GKDIQEYGIS	VIYADGARTAYSNSVK	GTQDGSLIV	not detected	0 of 6
GFDLNEYGIS	VIYADGVRTAYADDVK	GQVAGTFDI	380 pM	6 of 6
GFSLNEYGIS	VIYSDGRRTFYGDSVK	GRSAGTFDS	570 pM	6 of 6
GFDLDEYGIS	VIYADGMRTFYADDVK	GENAGTFDV	620 pM	6 of 6
GFDLNEYGIS	VIYADGMRTSYADSVK	GNNAGTFDM	780 pM	6 of 6
GFSLDEYGIS	VIYADGLRTQYSNKVK	GLQGFFFDQ	not detected	0 of 6
GFSLNSYGIS	VIYSDGRRTFYADSVK	GEAAGTFDK	9.5 nM	6 of 6
GFDLDEYGIS	VIYADGQRTAYTDSVK	GEVAGTFDV	23 nM	6 of 6
GFTLNSYGIS	VIYSDGRRTFYGDSVK	GHAPGTFDS	140 nM	1 of 6
GFSLNSYGIS	VIYSDGRRTFYGDSVK	GQTAGTFDW	not detected	0 of 6
GFTLNSYGHS	VIYSDGRRTFYGDSVK	GRAAGTFDA	not detected	0 of 6
GFWLNSYGIS	VIYSDGKRTFYGDSVV	GRAAGTFDS	not detected	0 of 6
GFNLNTYGIS	VIYSDGRRTFYGDSVK	GRQAGTFDS	12 nM	6 of 6
GFDLNSYGIS	VIYSDGRRTFYGDSVK	GNAAGTFEP	not detected	0 of 6
GFTLNSYGIS	VIYSDGRKTMYSDFVK	GRAAGTFDL	not detected	0 of 6
GFDLNEYGIS	VIYADGMRTQYADDVK	GNVAGTFDV	310 pM	5 of 6
GFDLNSYGIS	VIYSDGRRTFYGDQVK	GKQAGTFDS	1.4 nM	6 of 6
GEDIDEYGIS	VIYADGQRTAYDEAVK	GTIAGSFFH	not detected	0 of 6
GADLNEYGIS	VIYADGRSVYYANSFK	GHNAGTFNS	not detected	0 of 6
GFDLNEYGIS	VIYADGRRSFYADSVK	GQTAGTFDS	84 pM	6 of 6
GFNLNSYGIS	VIYSDGRRTFYGDSVK	QRAAGTFDS	390 nM	1 of 6
KFDLNSYGIS	VIYSDGKRTFYDDSVK	GREAGTFDS	2.1 nM	6 of 6
GFSLNEYGIS	VIYADGMRNFYADSVK	GLHSGFFDI	not detected	0 of 6
GFTLESYGIS	VIYADGRRTFYGDEVK	GRAAGTFKS	not detected	0 of 6
GFDLNEYGIS	VIYADGMRTAYADDVK	GENAGTFDL	890 pM	6 of 6
GFDLDSYGIS	VIYADGRRSAYHDSVK	GQNGGVSFV	130 pM	6 of 6
GFDLNEYGIS	VIYADGSRVAYANNVK	GKNNAIVSN	39 nM	1 of 6
GFQIDEYGIS	VIYADGQRASYAADVK	GSYDSDIII	not detected	0 of 6
GEDLNEYGVS	VIYADGIRSTYADSFK	GKHGAAFFV	not detected	0 of 6
GFNLDEYGIS	VIYADGKRTAYADSVK	GEVAGTFDL	390 pM	6 of 6
GFTLNLYGIS	VIYSDGRRTQYIDEVK	GRAAGTFDI	not detected	0 of 6
GFTLNSYGIS	VIYSDGRRTSYGDSVK	GRAAGEFDS	not detected	0 of 6
GFTLNSYGIS	VIYALGRRTFYGDSVK	GRAAMTNKS	not detected	0 of 6
GFTLNDYGIS	VIYSDGRRTFYEDDVK	GRTAGTFDS	13 nM	5 of 6
GFDLEEYGIS	VIYADGQRTAYTDSVK	GNVAGTFDV	500 pM	6 of 6
GFTLNQYGIS	VIYSDGQRTFYSDSVK	GRAAVTFDS	not detected	0 of 6
GFTLWSYGIS	VIYADGRRTFYGDSVK	GRAAGTFDS	12 nM	5 of 6
GFSLNQYGIS	VIYSDGRRTFYIDSVK	GQAAGTFDS	2.1 nM	6 of 6
GFDLDEYGIS	VIYADGVRQAYADSVK	GENAGTFDV	1.1 nM	6 of 6

The closing 7 entries, repeated:

{"CDR-H1": "GFTLNSYGIS", "CDR-H2": "VIYALGRRTFYGDSVK", "CDR-H3": "GRAAMTNKS", "apparent Kd": "not detected", "replicates with signal": "0 of 6"}
{"CDR-H1": "GFTLNDYGIS", "CDR-H2": "VIYSDGRRTFYEDDVK", "CDR-H3": "GRTAGTFDS", "apparent Kd": "13 nM", "replicates with signal": "5 of 6"}
{"CDR-H1": "GFDLEEYGIS", "CDR-H2": "VIYADGQRTAYTDSVK", "CDR-H3": "GNVAGTFDV", "apparent Kd": "500 pM", "replicates with signal": "6 of 6"}
{"CDR-H1": "GFTLNQYGIS", "CDR-H2": "VIYSDGQRTFYSDSVK", "CDR-H3": "GRAAVTFDS", "apparent Kd": "not detected", "replicates with signal": "0 of 6"}
{"CDR-H1": "GFTLWSYGIS", "CDR-H2": "VIYADGRRTFYGDSVK", "CDR-H3": "GRAAGTFDS", "apparent Kd": "12 nM", "replicates with signal": "5 of 6"}
{"CDR-H1": "GFSLNQYGIS", "CDR-H2": "VIYSDGRRTFYIDSVK", "CDR-H3": "GQAAGTFDS", "apparent Kd": "2.1 nM", "replicates with signal": "6 of 6"}
{"CDR-H1": "GFDLDEYGIS", "CDR-H2": "VIYADGVRQAYADSVK", "CDR-H3": "GENAGTFDV", "apparent Kd": "1.1 nM", "replicates with signal": "6 of 6"}

A sequence measured in both rounds can read differently, since the two assays cover different ranges.
The authors averaged sequences with at least three values out of six and counted those with two or fewer as poor binders.
Of ten entries with the parent sequence, four were seen in most replicates (averages 2.2 nM to 240 nM), three in one and three in none, so single entries are noisy.

Data: MIT Lincoln Laboratory AlphaSeq set, Li et al. 2023, doi:10.1038/s41467-023-39022-2, as distributed in FLAb.